For 1 substance, percent less co-immunoprecipitated CtBP1 than with EVI1-WT, after H2O2 results are on record in PMC6125627.

The assay addresses Flag-tagged EVI1-AQA (human) (UniProt Q03112). Nature of the assay: co-IP; Flag-tagged EVI1 precipitated with FlagM2 magnetic beads from total cell protein extracts of transfected HEK293T cells, untreated or treated with H2O2; co-immunoprecipitated CtBP1 detected by western blot and signal quantified (n = 3).

On to “C-terminal binding protein 1 (CtBP1) (from UniProt Q13363 1-440) (natural protein)”, for which the percent less co-immunoprecipitated CtBP1 than with EVI1-WT, after H2O2 worked out at 36.9%.
